Experimental findings from patent EP4591861A1, “USE OF 4-TMAP FOR TREATING OR RELIEVING DEPRESSION” (IBIOME Biotechnology Co., Ltd., priority 2022, dated 2024) are described below.

Assay [1] concerns AAD-induced depression model. As to the kind of experiment: Forced swimming test in AAD-induced depression model. Type of assay: in vivo, mice. On the procedure: (§1) The forced swimming test apparatus is a transparent 20×30cm round barrel filled with pure water, with a diameter of 20cm and a water depth of 15cm. The pure water temperature is 23-25°C. A camera is installed in front of the apparatus and is flush with the water surface. After the mouse is placed in the water, a video of its activities in the water is collected for 6 minutes. The last 4 min of the video were analyzed to determine the immobility time of the mouse. Immobility behavior is defined as the behavior of the mouse floating, not struggling, or relying only on occasional swinging to maintain floating. The longer the immobility time, the more severe the depression.
(§2) 11, 12, and 13. […] At the same time, it still has a significant antidepressant effect at concentrations of 0.3 mg/kg, 1 mg/kg, and 10 mg/kg.

Assay [2] deals with Cort-induced depression model. The conditions noted are these: mouse, in vivo, iv, 0.1 mg/kg. How it is done:
as §1

The test system of assay [3] is CRS-induced depression model. The conditions noted are these: mouse, in vivo, iv, 0.1 mg/kg. On the procedure: as §1
The subject of assay [4] is Cort-induced depression model. Particulars: mouse, in vivo, iv, 0.1 mg/kg. How it is done:
(§3) The tail suspension test uses tape to suspend mice by their tails in a position where they cannot escape or grab onto nearby surfaces. A camera is mounted in front of the mice to record the activity of the mice for 6 minutes while they are suspended. The last 4 min of the video is then analyzed to determine the time the mice spend immobile. This test is based on the idea that animals that are subjected to short-term, unavoidable stress will develop an immobile posture, and the more severe the depressive phenotype, the less time they will spend trying to escape.
The source holds these as a separate data set.

Assay [5] relates to CRS-induced depression model. Particulars: mouse, in vivo, iv, 0.1 mg/kg. On the procedure: as §3
This is another data set of the same source.

The subject of assay [6] is AAD-induced depression model. The assay is described as follows: Tail suspension test in AAD-induced depression model. The conditions noted are these: mouse, in vivo, iv. On the set-up: species or system mice. How it is done:
as §3, §2

Each structure is given as a SMILES string. “Also recorded” adds a separate entry of the source. Read-outs that look alike come from different tables or passages of the source.

Regarding `CC(CCC(=O)[O-])[N+](C)(C)C` (centres unmarked) [4-TMAP, 4-(trimethylammonio) pentanoate], the minimal effective dose in assay [1] (Mus musculus, iv, 2 h, read-out: minimum therapeutic dose) was found to be 0.1 mg/kg. Besides, the “effective concentration compared with Brexpiprazole” value in assay [1] (mouse, in vivo) is listed as “lower effective concentration”. In addition, the immobility time result in assay [1] (mouse, in vivo, iv, 0.1 mg/kg) is “significantly lower; also recorded: significantly reduce; also recorded: tends to reduce; also recorded: loses its effect”; in assay [1] (mouse, in vivo, iv, 0.3 mg/kg), “significantly reduce”; in assay [1] (mouse, in vivo, iv, 1 mg/kg), “significantly reduce”; in assay [1] (mouse, in vivo, iv, 10 mg/kg), “significantly reduce”; in assay [2] it was “significantly lower”; in assay [3] it was “significantly lower”. Also, the immobility time entry is “significantly lower” in assay [4]; “significantly lower” in assay [5]; “significantly lower; also recorded: significantly reduce; also recorded: loses its effect; also recorded: tends to reduce” in assay [6] (0.1 mg/kg); “significantly reduce” in assay [6] (0.3 mg/kg); “significantly reduce” in assay [6] (1 mg/kg); “significantly reduce” in assay [6] (10 mg/kg).
